{"sequences": {"note": "Protein sequences, listed by entry. Tags and fused reporters are not part of them.", "UniProt Q64077, whole entry, looked up": "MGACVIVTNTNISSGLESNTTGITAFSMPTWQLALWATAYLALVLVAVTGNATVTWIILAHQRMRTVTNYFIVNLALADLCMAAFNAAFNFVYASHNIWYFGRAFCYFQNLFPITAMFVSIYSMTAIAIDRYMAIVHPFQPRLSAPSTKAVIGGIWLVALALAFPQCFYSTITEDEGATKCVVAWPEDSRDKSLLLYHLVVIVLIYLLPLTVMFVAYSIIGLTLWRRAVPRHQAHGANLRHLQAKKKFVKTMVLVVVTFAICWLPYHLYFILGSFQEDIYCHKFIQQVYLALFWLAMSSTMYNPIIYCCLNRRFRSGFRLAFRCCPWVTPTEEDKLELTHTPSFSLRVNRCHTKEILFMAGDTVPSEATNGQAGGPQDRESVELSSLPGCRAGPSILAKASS"}, "source": "ChEMBL document CHEMBL1132079", "about": "“Combined NK1 and NK2 tachykinin receptor antagonists: synthesis and structure-activity relationships of novel oxazolidine analogues” (Bioorg Med Chem Lett, 1999)", "biological_target": "Substance-K receptor (Cavia porcellus, UniProt Q64077)", "assay": "Inhibitory activity against Neurokinin 2 (NK2) receptor from guinea pig ileum", "assay_type": "tissue-based", "data": [{"smiles": "COc1cc(C(=O)N2CO[C@](CCN3CCC4(CC3)C(=O)NCN4c3ccccc3)(c3ccc(Cl)c(Cl)c3)C2)cc(OC)c1OC", "values": [{"measurement": "IC50", "result": 239, "unit": "nM"}]}]}
